Structures are written as SMILES.

Protein sequences, listed by entry. Tags and fused reporters are not part of them.
UniProt P15056, whole entry V600E: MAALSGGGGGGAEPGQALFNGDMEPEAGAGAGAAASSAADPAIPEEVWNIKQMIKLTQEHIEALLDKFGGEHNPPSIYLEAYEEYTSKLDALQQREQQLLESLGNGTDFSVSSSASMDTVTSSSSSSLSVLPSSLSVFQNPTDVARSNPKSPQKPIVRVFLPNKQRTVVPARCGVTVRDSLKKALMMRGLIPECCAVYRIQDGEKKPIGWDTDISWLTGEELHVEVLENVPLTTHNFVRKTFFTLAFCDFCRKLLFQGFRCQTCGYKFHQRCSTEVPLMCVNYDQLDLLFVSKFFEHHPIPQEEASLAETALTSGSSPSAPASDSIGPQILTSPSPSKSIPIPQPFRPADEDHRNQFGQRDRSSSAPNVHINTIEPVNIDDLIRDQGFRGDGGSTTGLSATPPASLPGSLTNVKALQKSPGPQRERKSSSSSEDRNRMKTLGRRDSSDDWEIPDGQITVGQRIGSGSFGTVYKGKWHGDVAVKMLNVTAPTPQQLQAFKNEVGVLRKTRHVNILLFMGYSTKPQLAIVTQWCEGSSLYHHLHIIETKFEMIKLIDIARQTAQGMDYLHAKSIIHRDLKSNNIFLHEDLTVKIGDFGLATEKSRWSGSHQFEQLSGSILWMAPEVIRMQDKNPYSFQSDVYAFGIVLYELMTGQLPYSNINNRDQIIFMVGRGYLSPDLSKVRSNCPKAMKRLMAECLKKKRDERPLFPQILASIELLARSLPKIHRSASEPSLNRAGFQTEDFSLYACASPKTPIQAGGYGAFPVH

The target of this assay is BRAF^V600E protein (Homo sapiens, UniProt P15056, V600E). Kind of assay: HiBiT cellular BRAF V600E degradation assay. The following applies: 24 h incubation, tested form: TFA. The text has this:
DMEM no-phenol red medium supplemented with L-glutamine was purchased from (Corning). Fetal bovine serum (FBS) was purchased from Gibco (Grand Island, NY, USA). Nano-Glo® HiBiT Lytic Assay Buffer & Reagents were purchased from Promega (Madison, WI, USA). A375 (harboring BRAF homozygous V600E mutation) was purchased from ATCC. A375.10 cell line was generated from A375 cell line from ATCC by knocking-in a HiBiT tag at the N-terminal of BRAF^V600E protein via CRISPR technology. Cell culture flasks and 384-well black flat-bottom polystyrene TC-treated microplates were acquired from Corning (Corning, NY, USA).
HiBiT Cellular BRAFv^600E Degradation Assay
Prior to the assay, the A375.10 cell line is maintained in DMEM no-phenol red medium supplemented with 10% fetal bovine serum (FBS). Following compound treatment, BRAF^V600E degradation was determined based on quantification of HiBiT luminescence signal by lysing the cells followed by addition of Nano-Glo® HiBiT Lytic Assay Reagents. The luminescence signal detected correlates with the total BRAF^V600E protein level in cells. […] After the desired incubation time with compound, 30 uL of Nano-Glo® HiBiT Lytic Buffer containing LgBiT protein (diluted 1:100) and luminescence substrate (diluted 1:50) were added to the cells in columns 1-23 of the assay plate. […]

Regarding `CCN(C)S(=O)(=O)Nc1ccc(F)c(C(=O)c2c[nH]c3ncc(-c4cnc(N5CCC(NC(=O)N6CCC(c7ccc(NC8CCC(=O)NC8=O)cc7)CC6)CC5)nc4)cc23)c1F` (centres unmarked), the “HiBit 24 h Emax” value (A375.10 cells, Emax = amount of residual protein remaining in the cell after compound treatment) is 19.33%. For the same molecule, the DC50 (read-out: HiBit 24 h DC50, A375.10 cells (HiBiT tag knocked in at N-terminal of BRAF V600E), concentration at which 50% of total cellular BRAF V600E is degraded) is 6.93 nM.

The values are drawn from patent US12559492B2, “BRAF degraders” (C4 Therapeutics, Inc., priority 2020, dated 2026).
